Laboratory results: article PMC11127902, “Rescuing tri-heteromeric NMDA receptor function: the potential of pregnenolone-sulfate in loss-of-function GRIN2B variants” (Cellular and Molecular Life Sciences: CMLS, 2024)

The chains behind the UniProt entries cited, without tags or fusion partners. Where a name states a change or a piece, a line headed by the entry shows the natural chain unless it says otherwise.
UniProt Q12809: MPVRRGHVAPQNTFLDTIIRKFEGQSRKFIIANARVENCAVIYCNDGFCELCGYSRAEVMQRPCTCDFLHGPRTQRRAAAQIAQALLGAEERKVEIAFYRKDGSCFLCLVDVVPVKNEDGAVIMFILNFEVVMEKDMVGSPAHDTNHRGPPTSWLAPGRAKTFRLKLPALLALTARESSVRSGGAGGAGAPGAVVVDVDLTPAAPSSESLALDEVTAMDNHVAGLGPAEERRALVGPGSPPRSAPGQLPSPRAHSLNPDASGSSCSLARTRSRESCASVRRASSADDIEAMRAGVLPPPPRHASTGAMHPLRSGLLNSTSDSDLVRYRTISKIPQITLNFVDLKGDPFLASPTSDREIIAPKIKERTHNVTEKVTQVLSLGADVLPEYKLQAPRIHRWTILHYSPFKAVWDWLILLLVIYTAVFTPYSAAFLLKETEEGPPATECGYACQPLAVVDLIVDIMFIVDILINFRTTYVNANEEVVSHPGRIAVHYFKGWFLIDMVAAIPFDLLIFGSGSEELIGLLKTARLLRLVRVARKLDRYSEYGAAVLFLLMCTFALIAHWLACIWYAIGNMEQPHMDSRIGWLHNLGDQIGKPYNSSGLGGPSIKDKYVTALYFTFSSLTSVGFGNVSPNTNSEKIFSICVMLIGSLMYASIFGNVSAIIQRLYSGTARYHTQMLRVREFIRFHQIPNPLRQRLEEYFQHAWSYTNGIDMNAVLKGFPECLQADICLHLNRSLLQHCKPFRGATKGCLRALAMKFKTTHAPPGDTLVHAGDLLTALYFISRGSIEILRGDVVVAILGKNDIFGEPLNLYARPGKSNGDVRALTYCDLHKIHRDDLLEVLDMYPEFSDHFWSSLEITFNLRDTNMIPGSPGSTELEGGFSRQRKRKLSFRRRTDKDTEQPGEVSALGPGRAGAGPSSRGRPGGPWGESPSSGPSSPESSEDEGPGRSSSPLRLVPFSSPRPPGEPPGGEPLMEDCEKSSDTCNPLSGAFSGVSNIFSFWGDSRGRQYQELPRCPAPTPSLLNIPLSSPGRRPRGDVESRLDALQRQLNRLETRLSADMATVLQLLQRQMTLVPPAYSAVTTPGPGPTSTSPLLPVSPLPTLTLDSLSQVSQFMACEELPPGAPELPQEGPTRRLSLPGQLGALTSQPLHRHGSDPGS

Target: human ether-a-go-go (hERG) channels (Homo sapiens, UniProt Q12809)
Details: 20 μM olanzapine, peak amplitude at -50 mV

`Cc1cc2c(s1)Nc1ccccc1N=C2N1CCN(C)CC1` [olanzapine] was tested, and the “effect of olanzapine on hERG channels” value was “inhibition”.
